Values joined by “and” are separate entries in the source; they are usually repeats but may differ in a detail not shown here. Equal entries are not always repeated. “Also recorded” adds a separate entry of the source.
Assays:
[1] = target: T1, GRPR (Mus musculus, UniProt P21729); format: cell-based
[2] = target: T1, GRPR; format: cell-based; remark: listed apart in the source

Protein sequences, listed by entry. Tags and fused reporters are not part of them. Lines headed by an entry give the natural chain unless they say otherwise; changes in a name come on top.
UniProt P21729: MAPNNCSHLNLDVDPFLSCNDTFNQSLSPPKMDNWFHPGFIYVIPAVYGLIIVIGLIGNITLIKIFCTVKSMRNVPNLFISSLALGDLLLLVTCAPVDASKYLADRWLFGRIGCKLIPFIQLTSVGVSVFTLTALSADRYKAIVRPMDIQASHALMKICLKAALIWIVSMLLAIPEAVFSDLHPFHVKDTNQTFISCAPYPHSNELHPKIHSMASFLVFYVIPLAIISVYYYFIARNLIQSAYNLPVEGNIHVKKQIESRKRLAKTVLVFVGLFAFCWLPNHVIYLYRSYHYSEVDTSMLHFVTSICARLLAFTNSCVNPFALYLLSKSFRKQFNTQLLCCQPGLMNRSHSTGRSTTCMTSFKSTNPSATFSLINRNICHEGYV

| Substance | effect of GRP on frequency of sIPSCs (in words) [1] | frequency of sIPSCs [1] | LTP of the EPSC relative to baseline EPSC value [2] | effect on pairing-induced LTP (in words) [2] | effect of GRPR antagonist on the GRP-induced increase in frequency of sIPSCs [1] | frequency of sIPSCs after GRPR antagonist added to GRP [1] |
| --- | --- | --- | --- | --- | --- | --- |
| gastrin-releasing peptide [GRP] | significant increase; also recorded: increased frequency of sIPSCs | 10.12±1.0 Hz and 10.37±1.2 Hz |  |  |  |  |
| [D-Phe^6,Des-Met^14]-bombesin-(6-14)ethyl amide |  |  | 1.92±0.05 | significantly enhanced | blocked the effect of GRP | 5.72±1.1 Hz |

Reference: patent publication US20080051315A1, “Grp Receptor-Related Methods for the Treating and Preventing Fear-Related Disorders” (priority 2003, published 2008)
